Test results as given in ChEMBL document CHEMBL1134723, “Synthesis and evaluation of the sunflower derived trypsin inhibitor as a potent inhibitor of the type II transmembrane serine protease, matriptase” (Bioorg Med Chem Lett, 2001).

Target: T1, Suppressor of tumorigenicity 14 protein (Homo sapiens, UniProt Q9Y5Y6)
T1 sequence (Q9Y5Y6 whole entry): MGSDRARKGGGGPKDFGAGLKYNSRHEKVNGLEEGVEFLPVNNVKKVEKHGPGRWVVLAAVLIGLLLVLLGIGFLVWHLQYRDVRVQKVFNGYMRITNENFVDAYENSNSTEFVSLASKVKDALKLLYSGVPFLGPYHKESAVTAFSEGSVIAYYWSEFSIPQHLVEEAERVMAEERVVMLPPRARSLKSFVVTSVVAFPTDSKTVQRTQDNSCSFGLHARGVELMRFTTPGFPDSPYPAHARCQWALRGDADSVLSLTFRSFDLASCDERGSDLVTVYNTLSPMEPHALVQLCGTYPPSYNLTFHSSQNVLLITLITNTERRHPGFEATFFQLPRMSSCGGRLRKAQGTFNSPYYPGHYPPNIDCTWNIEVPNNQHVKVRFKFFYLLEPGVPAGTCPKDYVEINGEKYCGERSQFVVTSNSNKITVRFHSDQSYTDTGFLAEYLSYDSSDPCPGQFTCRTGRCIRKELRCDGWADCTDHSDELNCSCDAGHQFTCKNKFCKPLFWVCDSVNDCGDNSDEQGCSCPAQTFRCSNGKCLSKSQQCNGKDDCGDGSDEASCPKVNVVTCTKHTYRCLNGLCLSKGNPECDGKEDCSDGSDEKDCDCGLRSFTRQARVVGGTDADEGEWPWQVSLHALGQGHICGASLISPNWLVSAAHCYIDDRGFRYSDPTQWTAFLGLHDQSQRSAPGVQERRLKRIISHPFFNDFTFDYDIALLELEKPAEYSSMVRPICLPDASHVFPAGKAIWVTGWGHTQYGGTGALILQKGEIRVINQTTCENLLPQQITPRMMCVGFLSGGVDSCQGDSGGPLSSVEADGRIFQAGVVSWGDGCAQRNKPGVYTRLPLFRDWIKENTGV
Conditions: cancer cell lines

CC[C@H](C)[C@@H]1NC(=O)[C@@H]2CCCN2C(=O)[C@@H]2CCCN2C(=O)[C@H]([C@@H](C)CC)NC(=O)[C@H](CO)NC(=O)[C@H](CCCCN)NC(=O)[C@H]([C@@H](C)O)NC(=O)[C@@H]2CSSC[C@H](NC1=O)C(=O)N[C@@H](Cc1ccccc1)C(=O)N1CCC[C@H]1C(=O)N[C@@H](CC(=O)O)C(=O)NCC(=O)N[C@@H](CCCNC(=N)N)C(=O)N2
Ki: 0.92 nM
